Consider 2 compounds from patent US7256286B2, “Bryostatin analogues, synthetic methods and uses” (The Board of Trustees of the Leland Stanford Junior …, priority 1999, dated 2007).

Sequences of proteins named here, by UniProt entry; tags and fusion partners are left off. A change or cut given only in a name is not applied to a line headed by its entry. Residues count along the entry.
UniProt P28867, 231-281 limits assumed: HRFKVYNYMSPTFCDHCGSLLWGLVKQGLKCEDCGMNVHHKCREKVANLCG

The target of experiment [1] is PKCδ-C1B (Mus musculus, UniProt P28867). In words: PKCδ-C1B assay. The settings on record: for activity in PKCδ-C1B assay compared with other analogues: 702.1 vs corresponding C26 methyl-containing analogue, 48, 49 among C20 ester analogues; for Ki: read-out: PKCδ-C1B Assay Ki, competition with tritiated phorbol 12,13-dibutyrate. The source says: Example 6 describes another protein kinase C assay which can be used to assess the binding affinities of compounds of the invention for binding to the C1B domain of PKCδ. […] Overexpression of PKCδ inhibits tumor cell growth and induces cellular apoptosis, whereas depleting cells of PKCδ can cause tumor promotion. Accordingly, this assay provides useful binding data for assessing potential anticancer activity.
The following procedure was used, based on a modification of a previous procedure described by Tanaka et al. (1986). Filters (Whatman GF-B, 21 mm diam.) are soaked for 1 h in a solution containing deionized water (97 mL), and 10% polyethyleneamine (3 mL). A filtering buffer solution containing TRIS (1M, pH 7.4, 10 mL) and water (490 mL) is prepared and cooled on ice. An assay buffer solution is prepared by the addition of TRIS (1M, pH 7.4, 1 mL), KCl (1M, 2 mL), CaCl2 (0.1M, 30 μL), bovine serum albumin (40 mg), diluted to 20 mL with deionized water and stored on ice. Phosphatidyl serine vesicles are prepared by the addition of phosphatidyl serine (10 mg/mL in chloroform, 0.4 mL) to a glass test tube followed by removal of the chloroform under a stream of nitrogen (5 min). To this viscous liquid is added a portion of the prepared assay buffer (4 mL) and the resulting mixture is then transferred to a plastic tube with washing. This tube is then sonicated (Branson Sonifier 250, power=6, 40% duty cycle) four times for 30 sec. with a 30 sec. rest period between sonications. The resulting solution is stored over ice. PKC is prepared by addition of cooled assay buffer (10 mL) to PKC (25 μL) purified from rat brain by the method of Mochly-Rosen and Koshland (1986) and then stored on ice. Stock solutions of compounds are diluted with absolute ethanol in glass in serial fashion. Each plastic assay incubation tube is made to contain prepared phosphatidyl serine vesicles (60 μL), prepared PKC solution (200 μL) and analogue (0–20 μL) plus EtOH (20–0 μL) for a total volume of 20 μL). […] Non-specific binding is measured in 1–3 tubes by the substitution of phorbol myristate acetate (PMA) (1 mM, 5 μL) and EtOH (15 μL) for the analogue/EtOH combination. […] The filters are immediately counted in a scintillation counter (Beckman LS 6000SC). […] The data is then plotted using a least squares fit algorithm with the Macintosh version of Kaleidagraph© (Abelbeck Software) and an IC50 (defined as the concentration of analogue required to displace half of the specific PDBU binding to PKC) is calculated. […]
All aspects of the PKCδ-C1B assay are identical to the PKC isozyme mix assay from Example 5 except the following features: In the PKCδ-C1B assay system, assay buffer is made without CaCl2. […] An aliquot (290 μL) is further diluted to 20 mL with assay buffer and is ready for use. […]

Experiment [2] deals with P388 cell line. Description: P388 murine lymphocytic leukemia cell assay. The settings on record: for activity in P388 assay compared with other analogues: 702.1 vs corresponding C26 methyl-containing analogue, 48, 49 among C20 ester analogues; for EC50: read-out: P388 Assay ED50, 5 days incubation, MTT. As to the method: Cells from a P388 cell line (CellGate, Inc., Sunnyvale, Calif.) are grown in RPMI 1640 cell medium containing fetal calf serum (10%), L-glutamine, penicillin, streptomycin and are split twice weekly. All compounds are first diluted with DMSO. Later serial dilutions are done with a phosphate buffer solution (HYQ DPBS modified phosphate buffered saline). All dilutions are done in glass vials and the final DMSO concentration is always below 0.5% by volume. Final two-fold dilutions are done in a 96 well plate using cell media so that each well contains 50 μL. All compounds are assayed in quadruplicate over 12 concentrations. Cell concentration is measured using a hemacytometer and the final cell concentration is adjusted to 1×10^4 cells/mL with cell medium. The resulting solution of cells (50 μL) is then added to each well and the plates are incubated for 5 days in a 37° C., 5% CO2, humidified incubator (Sanyo CO2 incubator). MTT solution (3-[4,5-dimethylthiazol-2-yl]-2,5-diphenyltetrazolium bromide, 10 μL) is then added to each well and the plates are re-incubated under identical conditions for 2 h. To each well is then added acidified isopropanol (150 μL of i-PrOH solution containing 0.05 N HCl) and mixed thoroughly. The plates are then scanned at 595 nm and the absorbances are read (Wallac Victor 1420 Multilabel Counter). The resulting data is then analyzed to determine an ED50 value using the Prism software package (GraphPad).

SMILES strings stand for the structures.

Consider `COC(=O)/C=C1\C[C@H]2C[C@H]([C@@H](C)O)OC(=O)C[C@H](O)C[C@@H]3CCC[C@H](C[C@@H]4CCO[C@H](/C=C/C(C)(C)[C@](O)(O2)[C@H]1OC(=O)c1ccccc1)O4)O3`, for which, in experiment [1], the “activity in PKCδ-C1B assay compared with other analogues” value is given as “higher activity” and the Ki came out at 1.7 nM. Also, in experiment [2], the “activity in P388 assay compared with other analogues” value is “higher activity” and the EC50 was determined as 42 nM.
Consider `CCCCCCCCCCCCCC(=O)O[C@H]1/C(=C/C(=O)OC)C[C@H]2C[C@H]([C@@H](C)O)OC(=O)C[C@H](O)C[C@@H]3CCC[C@H](C[C@@H]4CCO[C@H](/C=C/C(C)(C)[C@]1(O)O2)O4)O3`, for which, in experiment [1], the “activity in PKCδ-C1B assay compared with other analogues” value is on record as “higher activity” and the Ki is 1.3 nM. In experiment [2], the “activity in P388 assay compared with other analogues” value is “higher activity” and the EC50 was 3.6 nM.
